For one compound, IC50 results are on record in ChEMBL document CHEMBL4152198, “The development of Bruton's tyrosine kinase (BTK) inhibitors from 2012 to 2017: A mini-review” (Eur J Med Chem, 2018).

Protein sequences, listed by entry. Tags and fused reporters are not part of them. Lines headed by an entry give the natural chain unless they say otherwise; changes in a name come on top.
UniProt Q06187: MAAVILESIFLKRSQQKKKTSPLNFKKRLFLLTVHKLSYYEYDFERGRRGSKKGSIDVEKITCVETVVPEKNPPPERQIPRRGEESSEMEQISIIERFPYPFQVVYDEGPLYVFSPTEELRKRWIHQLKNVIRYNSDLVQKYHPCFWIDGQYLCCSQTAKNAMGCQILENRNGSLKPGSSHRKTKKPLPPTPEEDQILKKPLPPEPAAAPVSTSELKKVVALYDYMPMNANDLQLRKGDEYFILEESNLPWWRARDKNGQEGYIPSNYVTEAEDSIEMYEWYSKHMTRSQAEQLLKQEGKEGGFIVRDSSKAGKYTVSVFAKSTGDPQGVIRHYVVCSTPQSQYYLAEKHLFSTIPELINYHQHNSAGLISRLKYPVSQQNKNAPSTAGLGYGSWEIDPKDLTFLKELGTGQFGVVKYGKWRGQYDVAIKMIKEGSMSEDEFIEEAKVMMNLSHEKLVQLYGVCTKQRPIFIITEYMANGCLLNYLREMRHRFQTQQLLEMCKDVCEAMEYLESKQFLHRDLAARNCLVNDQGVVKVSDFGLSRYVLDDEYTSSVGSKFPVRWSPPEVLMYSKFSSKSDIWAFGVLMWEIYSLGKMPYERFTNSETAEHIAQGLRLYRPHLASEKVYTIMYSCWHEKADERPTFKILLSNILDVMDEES

The term pIC50 denotes the negative decadic logarithm of the IC50, by convention in mol/L. A high value points to a low IC50.

pIC50: −log10 of the molar value.

The target in this test is Tyrosine-protein kinase BTK (Homo sapiens, UniProt Q06187). Put plainly: Inhibition of BTK (unknown origin).

The compound `C=CC(=O)Nc1cccc(Nc2nc(Nc3ccc(OCCOC)cc3)ncc2F)c1` [SPEBRUTINIB] had a pIC50 of 9.15.
